Key:
[1] = biological target: T1, human CCR2 (Homo sapiens, UniProt P41597); test: THP-1 binding (CCR2, 125I-human MCP-1 tracer); design: THP-1 human monocytic leukemic cell line, which expresses endogenous CCR2; endogenous in cells; host or cells: THP-1 human monocytic leukemia cells; conditions: metabolite examples; THP-1 cells, 125I-MCP-1
T1 sequence (P41597 1-360 isoform P41597-2): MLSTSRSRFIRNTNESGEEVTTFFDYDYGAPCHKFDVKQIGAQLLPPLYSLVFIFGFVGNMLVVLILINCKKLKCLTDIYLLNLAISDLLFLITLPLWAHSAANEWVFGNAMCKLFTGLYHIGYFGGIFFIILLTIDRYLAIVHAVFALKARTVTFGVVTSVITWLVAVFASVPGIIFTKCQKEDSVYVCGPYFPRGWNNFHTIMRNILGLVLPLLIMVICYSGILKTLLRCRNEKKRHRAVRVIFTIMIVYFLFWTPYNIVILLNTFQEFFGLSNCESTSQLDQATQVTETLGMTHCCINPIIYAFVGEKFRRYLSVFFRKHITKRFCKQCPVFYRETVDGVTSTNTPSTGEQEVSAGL
Protocol: The human CCR2 binding assay was also established with the THP-1 human monocytic leukemic cell line, which expresses endogenous CCR2, using 125I-human MCP-1 as the tracer ligand. Radioligand competition binding assays were used for assessment of binding affinity of test compounds to the CCR2 receptor. For radioligand competition studies, 100 μl containing 2.5×10^5 THP-1 cells/well (in assay buffer containing 50 mM HEPES, pH7.4, 5 mM MgCl2, 1 mM CaCl2 and 0.5% BSA) were added to 96-well assay plates containing test compound in 3-fold serial dilution, with final concentrations ranging from […]. Subsequently, 50 μl ^125I-MCP-1 radioligand at a final concentration of 0.2 nM in assay buffer were added to the reaction. After a 90 minute incubation period at room temperature, the binding reaction was terminated by harvesting on GF/B filter plates (PerkinElmer Cat. No. 6005177) followed by washing with ice-cold wash buffer (50 mM HEPES, pH 7.4, 0.1% BSA, 0.5 M NaCl) to remove unbound ligand. After washing, the plate was dried for 45 minutes at 60° C. followed by addition of 40 μl MicroScint 20 scintillation fluid, sealed and analyzed by the Packard TopCount reader. […] Specific binding of 1-MCP-1 was calculated as the difference between total and non-specific binding. […] After correcting for non-specific binding, IC50 values were determined.

[2] = biological target: T1, human CCR2; test: Human peripheral blood mononuclear cell binding (CCR2 binding), 125I-human MCP-1 tracer; design: hPBMCs were isolated from human leukopak (Biological Specialty Inc.); endogenous in cells; host or cells: human peripheral blood mononuclear cells from leukopak (Biological Specialty Inc.); conditions: metabolite examples; hPBMCs, 125I-MCP-1; read-out: PBMC Binding IC50
Protocol: See also: Yoshimura et al., J. Immunol. 1990, 145, 292. The human CCR2 binding assay was established with human peripheral blood mononuclear cells (hPBMCs) using ^125I-human MCP-1 as the tracer ligand. hPBMCs were isolated from human leukopak (Biological Specialty Inc.) using a standard protocol with Ficoll-Hypaque (Mediatech Cellgro). Isolated hPBMCs were washed and diluted to 1×10^7/ml in binding buffer (RPMI-1640, 0.1% BSA, 20 mM Hepes, pH 7.4). ^125I-MCP-1 (NEN/Perk Elmer) was diluted to 0.45 nM in binding buffer. The compound was diluted in binding buffer at 3-fold the final concentrations used in the binding assay. The binding assay was performed using a 96-well filter plate (Millipore). Total ^125I-MCP-1 binding was assessed as follows: to each reaction of a total volume of 150 μl were added 5×10^5 cells, 0.15 nM […], and compound such that the final concentration ranged from 0 to 100 nM. The plate was incubated at room temperature for 30 minutes followed by three washes with RPMI-1640, 0.1% BSA, 0.4 M NaCl, 20 mM Hepes, pH 7.4 using a vacuum manifold filtration (Millipore). […] The plate was sealed and counted on the Trilux for 1 minute. Non-specific binding was determined in the presence of 300 nM cold MCP-1 (PeproTech Inc.). Specific 1-MCP-1 was calculated as the difference between total and non-specific binding. […]

IC50 [1]: 27 nM | IC50 [2]: 15 ± 7.3 nM
SMILES: CC(=O)N[C@@H]1C[C@H](NC(C)C)CC[C@@H]1N1CC[C@H](Nc2ncnc3ccc(C(F)(F)F)cc23)C1=O [Example 2, N-((1R,2S,5R)-5-(isopropylamino)-2-((3S)-2-oxo-3-((6-(trifluoromethyl)-4-quinazolinyl)amino)-1-pyrrolidinyl)cyclohexyl)acetamide]

Reference: patent publication US7687508B2, “Cyclic derivatives as modulators of chemokine receptor activity” (Bristol-Myers Squibb Company, priority 2006, dated 2010)
